Chains of the proteins cited; added tags and fusions are not shown. Lines headed by an entry give the natural chain unless they say otherwise; changes in a name come on top.
UniProt O60674: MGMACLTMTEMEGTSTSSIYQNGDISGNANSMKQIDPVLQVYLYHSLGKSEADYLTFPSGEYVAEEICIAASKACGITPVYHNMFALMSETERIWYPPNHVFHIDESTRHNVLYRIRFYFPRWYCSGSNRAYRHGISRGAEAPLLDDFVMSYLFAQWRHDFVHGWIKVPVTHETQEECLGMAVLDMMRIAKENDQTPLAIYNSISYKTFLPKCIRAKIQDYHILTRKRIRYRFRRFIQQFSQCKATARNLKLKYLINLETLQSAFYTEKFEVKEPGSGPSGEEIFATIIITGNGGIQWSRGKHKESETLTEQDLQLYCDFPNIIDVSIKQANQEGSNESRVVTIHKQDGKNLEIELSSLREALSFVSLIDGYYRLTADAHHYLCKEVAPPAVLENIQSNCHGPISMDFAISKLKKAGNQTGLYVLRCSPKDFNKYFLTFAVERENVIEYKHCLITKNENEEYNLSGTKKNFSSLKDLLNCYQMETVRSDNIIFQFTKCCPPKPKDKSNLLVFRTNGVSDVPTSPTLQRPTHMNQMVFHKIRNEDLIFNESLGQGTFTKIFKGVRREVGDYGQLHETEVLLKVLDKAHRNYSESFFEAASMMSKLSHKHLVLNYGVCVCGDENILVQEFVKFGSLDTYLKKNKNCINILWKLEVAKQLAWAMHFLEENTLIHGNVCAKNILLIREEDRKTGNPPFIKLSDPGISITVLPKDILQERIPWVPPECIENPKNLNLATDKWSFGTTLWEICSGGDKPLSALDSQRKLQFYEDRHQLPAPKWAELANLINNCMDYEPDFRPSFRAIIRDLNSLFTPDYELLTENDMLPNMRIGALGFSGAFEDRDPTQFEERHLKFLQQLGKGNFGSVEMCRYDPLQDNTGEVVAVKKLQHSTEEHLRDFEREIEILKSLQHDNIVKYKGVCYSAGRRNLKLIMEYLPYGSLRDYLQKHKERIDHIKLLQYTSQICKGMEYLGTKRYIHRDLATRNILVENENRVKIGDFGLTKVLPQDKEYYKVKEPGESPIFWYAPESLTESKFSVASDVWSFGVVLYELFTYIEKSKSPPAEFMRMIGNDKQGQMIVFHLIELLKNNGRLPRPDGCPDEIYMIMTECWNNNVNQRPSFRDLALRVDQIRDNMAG

According to ChEMBL document CHEMBL2203210, “SAR and in vivo evaluation of 4-aryl-2-aminoalkylpyrimidines as potent and selective Janus kinase 2 (JAK2) inhibitors” (Bioorg Med Chem Lett, 2012):

Molecular target: Tyrosine-protein kinase JAK2 (Homo sapiens, UniProt O60674)

- IC50: 3.6 nM
SMILES: CC(=O)Nc1ccc(-c2ccnc(Nc3ccc(N4CCOCC4)cc3)n2)cc1
